Values of other authors, collected in paper PMC3969379, “Neospora caninum Calcium-Dependent Protein Kinase 1 Is an Effective Drug Target for Neosporosis Therapy” (PLoS ONE, 2014).

Tested on: N. caninum
Conditions: prolonged administration; cited from earlier work

For `CCC[C@@H]1C[C@@H](C(=O)N[C@@H]([C@H]2O[C@H](SC)[C@H](O)[C@@H](O)[C@H]2O)[C@H](C)Cl)N(C)C1` [clindamycin], the “cases of canine neosporosis with clinical signs eliminated” value is given as “less than 40%”.
